These are literature values, as cited in patent US20260137644A1, “COMPOSITIONS INCLUDING CAFFEIC ACID PHENETHYL ESTER” (XMK THERAPEUTICS INC., priority 2022, published 2026).

Sequences of proteins named here, by UniProt entry; tags and fusion partners are left off. Residues count along the entry.
UniProt P23219, 24-599: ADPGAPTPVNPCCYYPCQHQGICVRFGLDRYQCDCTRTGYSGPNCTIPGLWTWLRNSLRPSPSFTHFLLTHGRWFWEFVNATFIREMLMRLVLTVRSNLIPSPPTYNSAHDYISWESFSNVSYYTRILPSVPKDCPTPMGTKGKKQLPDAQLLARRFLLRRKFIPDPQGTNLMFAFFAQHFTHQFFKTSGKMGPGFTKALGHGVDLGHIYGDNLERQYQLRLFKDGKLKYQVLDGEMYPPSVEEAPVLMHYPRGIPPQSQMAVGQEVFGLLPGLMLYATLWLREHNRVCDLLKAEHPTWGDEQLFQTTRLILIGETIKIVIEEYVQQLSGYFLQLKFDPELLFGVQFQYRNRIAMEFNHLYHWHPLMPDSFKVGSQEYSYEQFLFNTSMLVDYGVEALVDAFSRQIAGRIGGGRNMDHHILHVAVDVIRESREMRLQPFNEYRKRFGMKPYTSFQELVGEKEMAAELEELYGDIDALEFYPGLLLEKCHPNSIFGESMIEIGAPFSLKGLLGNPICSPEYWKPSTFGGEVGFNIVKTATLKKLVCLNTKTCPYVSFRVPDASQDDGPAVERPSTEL
UniProt P35354, 18-604: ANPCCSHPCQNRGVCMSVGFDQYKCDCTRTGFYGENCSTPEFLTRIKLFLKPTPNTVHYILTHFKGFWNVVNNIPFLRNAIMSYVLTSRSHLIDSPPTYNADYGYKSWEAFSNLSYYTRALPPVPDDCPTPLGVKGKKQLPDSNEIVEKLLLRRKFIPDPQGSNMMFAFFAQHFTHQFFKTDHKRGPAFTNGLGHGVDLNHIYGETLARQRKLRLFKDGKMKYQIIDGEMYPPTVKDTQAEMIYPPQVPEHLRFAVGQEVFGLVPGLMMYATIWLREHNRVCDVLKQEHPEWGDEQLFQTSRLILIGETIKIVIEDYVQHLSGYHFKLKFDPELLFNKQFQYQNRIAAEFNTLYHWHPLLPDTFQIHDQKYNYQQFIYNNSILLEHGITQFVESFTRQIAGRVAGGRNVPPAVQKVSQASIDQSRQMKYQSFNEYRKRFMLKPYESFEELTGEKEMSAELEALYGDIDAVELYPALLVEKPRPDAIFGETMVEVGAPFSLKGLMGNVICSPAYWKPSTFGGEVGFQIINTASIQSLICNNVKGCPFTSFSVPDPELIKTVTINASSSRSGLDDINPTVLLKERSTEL

The structures appear in SMILES notation.

One series addresses COX-1 (Homo sapiens, UniProt P23219).
For the next series, the target named is COX-2 (Homo sapiens, UniProt P35354).

In the case of `O=C(/C=C/c1ccc(O)c(O)c1)OCCc1ccccc1` [CAPE, 2-phenylethyl (E)-3-(3,4-dihydroxyphenyl)prop-2-enoate], the COX-1 activity result on COX-1 was “inhibits”. In addition, the COX-2 activity entry at COX-2 is on record as “inhibits”.
